# scFv variants of Ab-14 (light chain) against a SARS-CoV-2 spike peptide

From the AlphaSeq antibody data of Li et al. 2023 (doi:10.1038/s41467-023-39022-2), copy in the FLAb collection.

The target is the same throughout: PDVDLGDISGINAS, from the HR2 region of SARS-CoV-2 spike.

Parent scFv Ab-14: VH joined to VL by three GGGGS repeats. Changes lie in the light chain CDRs alone.
VH: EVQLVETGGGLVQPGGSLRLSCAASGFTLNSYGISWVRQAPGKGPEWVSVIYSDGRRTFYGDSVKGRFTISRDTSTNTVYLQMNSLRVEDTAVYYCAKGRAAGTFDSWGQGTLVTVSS
VL: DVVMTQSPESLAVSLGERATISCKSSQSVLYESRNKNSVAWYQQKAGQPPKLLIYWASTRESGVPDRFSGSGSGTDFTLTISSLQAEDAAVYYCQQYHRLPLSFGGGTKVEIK

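Phage display of a naive human antibody library on the peptide gave the parent. This is the validation round: designs drawn from the data on random variants, tested in the same kind of assay. Group labels follow the data file (Ctrl: baseline library sampled from a position-specific scoring matrix, with some repeated check sequences; En: ensemble of fine-tuned language models; GP: Gaussian process model; HC: hill climbing; Gen: genetic algorithm; Gibbs: Gibbs sampling; a sequence that several methods proposed may carry one label only). The scFvs were displayed on barcoded MATa yeast, the peptide on MATalpha yeast. The frequency of each diploid, read from paired DNA barcodes, reflects how well the two displayed proteins bind. Read counts were normalised to the haploid input and turned into Kd by a linear fit to BCL2-family pairs of known affinity, for each replicate. The assay was run in six technical replicates.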

Variants are written as CDR1, CDR2 and CDR3 of the light chain (limits as in the source). Parent: KSSQSVLYESRNKNSVA, WASTRES, QQYHRLPLS. The read-out is the apparent dissociation constant on a log10 scale (nM): the lower, the stronger. Replicates are averaged; those with no signal do not enter the mean. "not detected" means that the variant was in the library but no mating with the target was seen in any replicate; the authors take this as a sign of poor binding, and no number exists. Values of this round are not directly comparable with the first-round values of the same sequences. The authors' rule: three or more of the six replicates give a measured affinity, fewer mean a poor binder. Background: pairings of all light chain designs with three empty control strains gave a value in 4% of cases (median 2.64, 5th percentile 1.59). Values in that range, when seen in few replicates, are hard to tell from nonspecific mating. For each scFv, signals with the empty controls are counted beside the result.

mean log10 Kd (nM) | seen in | control signals | CDR-L1 | CDR-L2 | CDR-L3 | group
1.05 | 6/6 | 1/18 | MLTMFNNENQGWSNNIA | DTNNVQE | QQYSRLPFQ | En_Gibbs
not detected | 0/6 | 1/18 | KSSQSVLYESMNKNSVA | GASTRES | QQYTRLPPS | Ctrl
-0.10 | 6/6 | 0/18 | KLEQSVMLESRNKNAVA | SASQREL | QQYHRLPLS | GP_Gibbs
0.10 | 6/6 | 0/18 | KARQSQLYESRNQNSVA | NASQRLE | QQYHRLPLS | GP_Gibbs
-0.16 | 6/6 | 0/18 | KVSQSELYESRNKNSVA | NASQRES | QQYHRLPLS | GP_Gen
0.69 | 6/6 | 1/18 | ISSQPVLYESRNKNSVA | NASTRES | QQYHRLPLS | Ctrl
0.65 | 6/6 | 3/18 | KLSILHQVESINKSNVA | EMVTRES | QQYHRLPLS | En_HC
1.38 | 6/6 | 1/18 | KVSQSVLPESENKNSVA | WASTRER | QQYHRLPLS | Ctrl
0.33 | 6/6 | 2/18 | KLMYSVPGESRNKNSVA | DASTRSS | QQYHRLPLS | GP_Gibbs
0.34 | 6/6 | 0/18 | KLTMINGLEKVSKNNVA | EMETRER | QQYNRLPLS | En_Gen
1.06 | 5/6 | 0/18 | KSSISYLEESRNKNSVA | EASTRED | QQYHRLPLS | GP_HC
0.32 | 6/6 | 0/18 | KLSQSELYESRNKNSVA | NASQRED | QQYHRLPLS | GP_Gen
0.77 | 6/6 | 0/18 | QISQLMNLSMHQVNNVA | QMTTREK | QQYDRLPLS | En_Gen
0.25 | 6/6 | 3/18 | TLTQSVTMESHNKNSVA | DLSTRGS | QQYHRLPLS | En_HC
-0.39 | 6/6 | 3/18 | KLPQSYLYESRNKNSVA | NASTRLS | QQYHRLPLS | GP_Gen
0.39 | 6/6 | 2/18 | KFMQMVMQEDRNKNSVA | NASTRMQ | QQYHRLPLS | GP_Gibbs
1.19 | 6/6 | 1/18 | GFSDQITEQIADANSIA | DRDERDV | QQYSRLPLI | En_Gibbs
1.51 | 6/6 | 1/18 | HIERSTKGDAYFQYSIA | QGDIREK | QQYAQLPLT | En_Gibbs
-0.49 | 6/6 | 0/18 | KLSQSELYESRNKWSVA | NASQRES | QQYHRLPLS | GP_Gen
1.47 | 6/6 | 0/18 | KISQLVNFEGKSKNSVA | QMSTRES | QQYDRLPLS | En_HC
-0.47 | 6/6 | 0/18 | KLSQSVLFQSRNKNSVA | DASTRES | QQYHRLPLS | GP_HC
1.60 | 5/6 | 1/18 | KISQSVLYARRNKNSVA | EASTRLS | QQYHNLPLS | Ctrl
0.42 | 6/6 | 0/18 | KLSMGIEMNTRQNHNMA | EASLKDS | QQYNRLPLF | En_Gibbs
-0.09 | 6/6 | 0/18 | KLQQSVQYESRNKNSVA | EASTRES | QQYHRLPLS | GP_Gen
0.87 | 6/6 | 2/18 | KLPQSVPYEERCFNSVA | NASTRES | QQYHRLPLS | GP_Gibbs
0.48 | 6/6 | 1/18 | HVEHASLLSNATMNSVA | NEACLAD | QQYFRLPLA | En_Gibbs
1.00 | 6/6 | 1/18 | MIAQGLRGVGRNKNSVA | NAQTREQ | QHYHRLPLS | En_HC
1.00 | 6/6 | 0/18 | KLSMTTEMEHKNRNSVA | ELVTRMN | QQYNRLPLS | En_Gen
0.51 | 6/6 | 1/18 | NIYQAMHTLMQIRNNVA | DVTNRNA | QQYNRLPLS | En_Gen
1.71 | 6/6 | 0/18 | KISSLTNYESVNYNSVA | EMSTRPS | QSYHRLPLS | En_HC
-0.01 | 6/6 | 1/18 | KSQMSEGYEQRNKNSVA | EASTRCD | QQYHRLPLS | GP_Gibbs
-0.35 | 6/6 | 2/18 | KLSMSVLYESRNKNSVA | NASTREE | QQYHRLPLS | GP_HC
not detected | 0/6 | 0/18 | KSSQSVLYESMLKNSVA | WASTRES | QSYARLQLS | Ctrl
-0.41 | 6/6 | 0/18 | KLSQSVDYESRNKNSVA | NASTRMS | QQYHRLPLS | GP_Gen
not detected | 0/6 | 0/18 | KLREVQHLETKQRDNVA | DNDTREY | QDYYRLPLS | En_HC
1.54 | 6/6 | 2/18 | KINGVLINNGEDMNAIA | QENISNL | QQYFHLPLS | En_Gibbs
not detected | 0/6 | 1/18 | KSSQSVLYESRLKNSVA | SCSTREH | QQYHRLPLS | Ctrl
-0.51 | 6/6 | 1/18 | KFQQSVLYEDRNLNNVA | HGSTRSS | QDYHRLPLS | GP_Gibbs
not detected | 0/6 | 0/18 | KSSQSVLPESNNKNSVA | WASTRES | QQYHRLPLS | Ctrl
1.28 | 6/6 | 1/18 | KSSQSVLYESNNKNSVA | DASTRES | QQYHREPLS | Ctrl
0.34 | 6/6 | 1/18 | KLRQVTGYESYLRNNVA | QMSTRAE | QDYHRLPLS | En_HC
0.00 | 6/6 | 0/18 | KLSQSVDYESRMKNSVA | NASTRES | QQYHRLPLS | GP_Gen
0.82 | 6/6 | 2/18 | KSSISYLIESRNKNSVA | EASTREL | QQYHRLPLS | GP_HC
1.09 | 6/6 | 2/18 | KLTMITGTEKVHGNNVA | EMETREN | QQYNRLPLA | En_Gen
0.14 | 6/6 | 0/18 | KMDQWVDYGDRWKNSVA | NASTREQ | QQYHRLPLS | GP_Gibbs
-0.19 | 6/6 | 2/18 | KDSQSVPYEDRNLNNVA | HASTRES | QQYHRLPLM | GP_Gibbs
-0.02 | 6/6 | 1/18 | KQSWSELYGSRNKNSVA | DASQRES | QQYHRLPLS | GP_Gibbs
2.25 | 6/6 | 0/18 | KIELSNSVSLRGTRAIA | QGSARAH | QQYHRLPLT | En_Gibbs
2.21 | 5/6 | 2/18 | MLSDLVKMGSRNANSVA | DNSTRGS | QQYDRLPLS | En_HC
1.33 | 6/6 | 1/18 | MVYEATMMGGTARNSIA | NATMRPD | QQYHRLPLI | En_Gen
0.16 | 6/6 | 0/18 | KFSGSVLYESRNFNGVA | NASTRES | QQYWRLPLS | Ctrl
1.77 | 5/6 | 0/18 | MLSQMWAIGMKVSNSVA | QASTRFN | QQYERLPLI | En_Gen
not detected | 0/6 | 0/18 | IVSQIMLWGMHLKNSIA | EAQTRLN | QQYDRLPLF | En_Gen
-0.15 | 6/6 | 0/18 | KVSWSDELQSRNKGQVA | SASTREL | QQYHRLPLS | GP_Gibbs
-0.06 | 6/6 | 1/18 | KLPQSHLYESRNKNSVA | EASTRES | QQYHRLPLS | GP_Gen
0.90 | 1/6 | 0/18 | KSSISCLYESMNKNSVA | NGSTRES | QQYHRLPLS | GP_HC
-0.23 | 6/6 | 1/18 | KVSQSVLYESRAKNSVA | EASTRES | QQYHRLPLS | GP_Gen
-0.18 | 6/6 | 1/18 | KLMQSVLYESRNKNSVA | NASYREQ | QQYHRLPLS | GP_Gibbs
-0.03 | 6/6 | 0/18 | KGSQSSLFESRNKNSVA | QASTRES | QQYHRLPLS | Ctrl
0.49 | 6/6 | 4/18 | KSMQSVPYEDRNKNSVA | EASTRCS | QDYHRLPLS | GP_Gibbs